Reference: patent US7674819B2 (Warner-Lambert Company LLC, priority 2005, dated 2010)

Sequences of proteins named here, by UniProt entry; tags and fusion partners are left off.
UniProt P10275, whole entry: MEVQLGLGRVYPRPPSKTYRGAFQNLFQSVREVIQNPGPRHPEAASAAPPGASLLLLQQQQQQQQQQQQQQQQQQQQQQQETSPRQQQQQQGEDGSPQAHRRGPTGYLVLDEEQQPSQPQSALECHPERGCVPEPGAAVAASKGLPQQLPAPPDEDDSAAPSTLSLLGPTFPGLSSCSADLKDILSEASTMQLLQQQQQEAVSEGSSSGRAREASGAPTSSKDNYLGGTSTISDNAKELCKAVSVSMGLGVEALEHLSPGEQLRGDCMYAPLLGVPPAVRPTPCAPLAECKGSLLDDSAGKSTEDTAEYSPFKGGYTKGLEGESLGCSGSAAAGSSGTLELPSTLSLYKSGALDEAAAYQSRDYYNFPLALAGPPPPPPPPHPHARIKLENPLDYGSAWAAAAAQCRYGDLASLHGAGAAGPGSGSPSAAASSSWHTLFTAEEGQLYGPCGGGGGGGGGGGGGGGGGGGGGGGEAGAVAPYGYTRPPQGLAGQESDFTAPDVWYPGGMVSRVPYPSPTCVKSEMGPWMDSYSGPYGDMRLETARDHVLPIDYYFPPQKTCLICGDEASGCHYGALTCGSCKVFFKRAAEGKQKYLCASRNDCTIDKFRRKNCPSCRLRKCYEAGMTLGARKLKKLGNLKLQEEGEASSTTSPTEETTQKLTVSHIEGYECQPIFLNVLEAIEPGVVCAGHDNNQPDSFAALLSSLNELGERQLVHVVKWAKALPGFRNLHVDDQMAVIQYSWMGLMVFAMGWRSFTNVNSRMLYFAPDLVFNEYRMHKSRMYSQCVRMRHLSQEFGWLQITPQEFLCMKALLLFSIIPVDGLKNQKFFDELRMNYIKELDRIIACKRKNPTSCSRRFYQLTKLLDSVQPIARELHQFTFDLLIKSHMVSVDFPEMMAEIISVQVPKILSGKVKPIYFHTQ
UniProt P10275, whole entry Q868H: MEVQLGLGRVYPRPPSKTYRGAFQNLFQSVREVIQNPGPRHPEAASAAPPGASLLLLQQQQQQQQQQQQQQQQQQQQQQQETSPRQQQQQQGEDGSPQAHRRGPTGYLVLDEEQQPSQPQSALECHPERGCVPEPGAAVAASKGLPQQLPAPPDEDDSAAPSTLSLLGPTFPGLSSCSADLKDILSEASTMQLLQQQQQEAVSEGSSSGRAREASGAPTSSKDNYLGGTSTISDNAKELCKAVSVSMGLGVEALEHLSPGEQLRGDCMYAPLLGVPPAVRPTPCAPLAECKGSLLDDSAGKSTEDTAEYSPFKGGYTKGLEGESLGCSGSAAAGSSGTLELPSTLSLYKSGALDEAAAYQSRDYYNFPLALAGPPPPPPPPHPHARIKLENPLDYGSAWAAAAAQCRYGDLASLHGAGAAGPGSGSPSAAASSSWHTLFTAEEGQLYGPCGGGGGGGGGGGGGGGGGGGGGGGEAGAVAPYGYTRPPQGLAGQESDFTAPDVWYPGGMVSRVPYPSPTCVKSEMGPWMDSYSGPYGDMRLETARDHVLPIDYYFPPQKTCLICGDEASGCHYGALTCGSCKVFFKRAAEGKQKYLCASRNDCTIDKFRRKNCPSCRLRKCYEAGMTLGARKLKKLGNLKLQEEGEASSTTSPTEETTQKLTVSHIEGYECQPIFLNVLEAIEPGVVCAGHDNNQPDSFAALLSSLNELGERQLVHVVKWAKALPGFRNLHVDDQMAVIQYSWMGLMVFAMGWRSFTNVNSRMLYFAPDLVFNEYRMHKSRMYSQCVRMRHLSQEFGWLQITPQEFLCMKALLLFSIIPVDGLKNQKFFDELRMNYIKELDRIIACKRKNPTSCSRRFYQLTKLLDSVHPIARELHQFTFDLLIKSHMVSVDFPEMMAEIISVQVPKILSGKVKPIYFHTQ

Experiments:
[1] = target: hAR (Homo sapiens, UniProt P10275); experiment: Competitive binding of 3H-DHT to baculovirus/Sf9 generated hAR extracts; conditions: concentration at which one half of maximum binding of 1 nM 3H-DHT to hAR is inhibited; one hour at 4° C.; mean of multiple tests
[2] = target: androgen receptor (Homo sapiens, UniProt P10275); experiment: AR Antagonist Cell Assay (MDA-MB453-MMTV clone 54-19, luciferase reporter); type: cell-based; conditions: inhibition of induction by DHT (final concentration at 100 μM), 17 hr; compound 0.32-1000 nM; mean of multiple tests

In the case of `Cc1nnsc1-c1nnc(CN2CC(C)(C)C(Oc3ccc(C#N)c(C(F)(F)F)c3)C2=O)o1` (centres unmarked), the IC50 [1] is reported as 191 nM and the IC50 [2] is reported as 542 nM.
